Sequences of proteins named here, by UniProt entry; tags and fusion partners are left off. Residues count along the entry.
UniProt P08842, 22-583: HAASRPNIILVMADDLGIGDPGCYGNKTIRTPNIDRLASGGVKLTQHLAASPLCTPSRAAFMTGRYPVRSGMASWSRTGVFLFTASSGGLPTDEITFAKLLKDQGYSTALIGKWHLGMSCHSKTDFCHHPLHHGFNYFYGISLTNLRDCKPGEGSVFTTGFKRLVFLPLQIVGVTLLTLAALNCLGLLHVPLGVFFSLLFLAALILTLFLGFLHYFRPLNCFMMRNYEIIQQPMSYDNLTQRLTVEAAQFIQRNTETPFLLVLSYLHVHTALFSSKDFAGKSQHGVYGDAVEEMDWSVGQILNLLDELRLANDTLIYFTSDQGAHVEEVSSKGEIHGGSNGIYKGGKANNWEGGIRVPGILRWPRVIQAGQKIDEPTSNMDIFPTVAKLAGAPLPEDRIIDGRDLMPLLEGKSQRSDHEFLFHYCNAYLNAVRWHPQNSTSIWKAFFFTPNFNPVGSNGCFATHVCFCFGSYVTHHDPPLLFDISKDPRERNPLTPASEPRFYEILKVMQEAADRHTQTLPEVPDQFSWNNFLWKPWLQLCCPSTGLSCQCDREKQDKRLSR

In patent US6921776B1, “Compound” (Sterix Limited, priority 1996, dated 2005):

Columns and labels:
[1] = target: T1, oestrone sulphatase (E1-STS) (Homo sapiens, UniProt P08842); assay type: biochemical
[2] = target: T1, oestrone sulphatase (E1-STS)

## NS(=O)(=O)Oc1ccc2c3c(c(=O)oc2c1)CCCCC3 [compound 17, 6-Oxo-8,9,10,11-tetrahydro-7H-cyclohepta-[c][1]benzopyran-3-O-sulphamate]
[1]; double-reciprocal plot, placental microsomes, read-out: Apparent Ki for E1-STS inactivation
  KI (inactivation): 40 nM
[1]; method of Kitz and Wilson
  Overall rate constant for the decrease in activity: 3450 s⁻¹
[1]; placental microsomes
  Mode of E1-STS inhibition: biphasic
[1]; placental microsomes, listed as 667COUMATE
  Mode of E1-STS inhibition: time- and concentration-dependent manner
[2]; 0.01 μM (Table 2)
  % Inhibition ± S.D. of E1-STS activity in placental microsomes: 48 ± 2%
[2]; 0.1 μM (Table 2)
  % Inhibition ± S.D. of E1-STS activity in placental microsomes: 91 ± 1%
[2]; 1 μM
  Inhibition of E1-STS in placental microsomes: almost complete inhibition
[2]; 1 μM (Table 2)
  % Inhibition ± S.D. of E1-STS activity in placental microsomes: >99%

Where two headings read alike, the source gives them in different places.
